KAT2A inh: qHTS Assay for Inhibitors of GCN5L2; Histone acetyltransferase KAT2A (Homo sapiens), Q92830; GCN5L2 HAT assay, ThioGlo1 CoA-SH fluorescence; Potency, µM (highest dose often 58.9 µM), for inactives: at the top dose activity change, negative = inhibition, most hits filed as inhibitors; hit rate 0.21% among 390,000; AID 504327, 2011; also: potency is read from the fitted curve at half-maximal effect; % is scaled to controls: 0 for no effect and ±100 for the full control effect
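qHTS, 1536-well. 20nM enzyme, pH 7.5 HEPES/EDTA/Tween-20 buffer; 15 min compound preinc., RT. Start: 75uM H3(1-25), 70uM AcCoA, 50uM ThioGlo1. Read Ex340/Em540 at t=0 (autofluorescence flag) and t=20 min.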
VDR inhibitor: Inhibitors of the vitamin D receptor (VDR): qHTS | Potency, µM, without a hit: max response, negative = inhibition, usual class: inhibitors | Vitamin D3 receptor (Homo sapiens), P11473 | hit rate 0.93% among 400,000 | VDR-SRC2-3 peptide fluorescence polarization, 2 h; also: potency is read from the fitted curve at half-maximal effect; % is scaled to controls: 0 for no effect and ±100 for the full control effect
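Reagent solutions, kept cold and dark, are dispensed first; compounds are then pinned in at 23 nl, plates briefly spun, and incubated 2 h at ambient temperature. Inhibition of VDR–SRC2-3 peptide binding is read by fluorescence polarization.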
PI5P4K alpha inh: qHTS for Inhibitors of phosphatidylinositol 5-phosphate 4-kinase (PI5P4K). AID 652105, 2013. PI5P4Kalpha enzyme, ADP-Glo luminescence, 60 min; stronger effect = lower value. Phosphatidylinositol 5-phosphate 4-kinase type-2 alpha (Homo sapiens), P48426. max response, %. hit rate 1.2% among 330,000; active = max response of -50% or lower; inconclusive = between -30% and -50%; inactive = -30% or higher; also: value at the top dose of about 77 µM; % is scaled to controls: 0 for no effect and ±100 for the full control effect
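PI5P4Kalpha ADP-Glo assay; 5 microM ATP final; 60 min RT reaction; HEPES pH 7.4/EGTA/CHAPS, 5% DMSO; controls lacking substrate or enzyme; luminescent end-point.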
PLK1 PBD inh: qHTS for Inhibitors of PLK1-PDB (polo-like kinase 1 - polo-box domain): Primary Screen. Serine/threonine-protein kinase PLK1 (Homo sapiens), P53350. Potency, µM, for the others: max response, negative = inhibition, usual class: inhibitors. hit rate 2.8% among 360,000. Plk1 PBD binding of FITC phosphopeptide, fluorescence polarization; also: potency is read from the fitted curve at half-maximal effect; series mostly up to about 57 µM; % is scaled to controls: 0 for no effect and ±100 for the full control effect; nearly all actives have a fitted effect of over 65% in size
Rango dissoc inh: qHTS Assay for Inhibitors of RanGTP induced Rango (Ran-regulated importin-beta cargo) - Importin beta complex dissociation | Snurportin-1 (Homo sapiens) + GTP-binding nuclear protein Ran (Homo sapiens) + Importin … | Biochemical FRET Rango-importin beta, RanGTP-induced dissociation | Potency, µM (titrated, usually from 46.1 µM), without a hit: at the highest dose activity change, negative = inhibition | hit rate 0.071% among 340,000 | AID 540253, 2011; calls by dose curve; also: potency is read from the fitted curve at half-maximal effect; % of control where 0% means no effect; nearly all actives have a fitted effect of over 45% in size
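Rango FRET biosensor (snurportin-1 IBB flanked by N-terminal EYFP and C-terminal CFP10) at 0.1 uM, with 0.25 uM importin beta in PBS, 1mM DTT, 0.02% Tween-20, 0.1% BSA. 0.6 uM Ran, 2mM GTP and 0.2 uM RCC1 were then added for 45 min at room temperature. Inhibition read as loss of FRET rise.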
Rango complex inh: qHTS Assay for Inhibitors of Rango (Ran-regulated importin-beta cargo) - Importin beta complex formation. Rango CFP/YFP FRET sensor + importin beta, 45 min. AID 540263, 2011. hit rate 0.031% among 340,000. Importin subunit beta-1 (Homo sapiens), Q14974. Potency, µM (titrated, usually from 92.2 µM), for inactives: at the top dose inhibition of complex formation; calls by dose curve;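 also: potency is read from the fitted curve at half-maximal effect; 0% = DMSO wells and 100% = buffer wells lacking importin beta; nearly all actives have a fitted effect of over 15% in size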
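FRET biosensor Rango (snurportin 1 IBB between N-terminal EYFP and C-terminal Cerulean), 50 nM in PBS/1 mM DTT/0.02% Tween-20/0.1% BSA, preincubated 5 min RT with compound; 0.125 microM importin beta added, 45 min RT, CFP/YFP FRET ratio read.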
* marks the source's active call; other numbers are inactive results. Compounds with a hit are over-represented: about 3.6% of the library has one in this group of screens. Unless noted, calls follow the shape of the dose curve; as a rule, active = well fitted curve in the direction sought with a large enough effect; inconclusive = small, poorly fitted or top-dose-only effect, or another doubt; inactive = no such curve, though single readings can be large; an effect the other way counts as inactive or inconclusive.

Chains of the proteins cited; added tags and fusions are not shown.
Histone acetyltransferase KAT2A (Homo sapiens), Q92830, UniProt Q92830, whole entry, looked up: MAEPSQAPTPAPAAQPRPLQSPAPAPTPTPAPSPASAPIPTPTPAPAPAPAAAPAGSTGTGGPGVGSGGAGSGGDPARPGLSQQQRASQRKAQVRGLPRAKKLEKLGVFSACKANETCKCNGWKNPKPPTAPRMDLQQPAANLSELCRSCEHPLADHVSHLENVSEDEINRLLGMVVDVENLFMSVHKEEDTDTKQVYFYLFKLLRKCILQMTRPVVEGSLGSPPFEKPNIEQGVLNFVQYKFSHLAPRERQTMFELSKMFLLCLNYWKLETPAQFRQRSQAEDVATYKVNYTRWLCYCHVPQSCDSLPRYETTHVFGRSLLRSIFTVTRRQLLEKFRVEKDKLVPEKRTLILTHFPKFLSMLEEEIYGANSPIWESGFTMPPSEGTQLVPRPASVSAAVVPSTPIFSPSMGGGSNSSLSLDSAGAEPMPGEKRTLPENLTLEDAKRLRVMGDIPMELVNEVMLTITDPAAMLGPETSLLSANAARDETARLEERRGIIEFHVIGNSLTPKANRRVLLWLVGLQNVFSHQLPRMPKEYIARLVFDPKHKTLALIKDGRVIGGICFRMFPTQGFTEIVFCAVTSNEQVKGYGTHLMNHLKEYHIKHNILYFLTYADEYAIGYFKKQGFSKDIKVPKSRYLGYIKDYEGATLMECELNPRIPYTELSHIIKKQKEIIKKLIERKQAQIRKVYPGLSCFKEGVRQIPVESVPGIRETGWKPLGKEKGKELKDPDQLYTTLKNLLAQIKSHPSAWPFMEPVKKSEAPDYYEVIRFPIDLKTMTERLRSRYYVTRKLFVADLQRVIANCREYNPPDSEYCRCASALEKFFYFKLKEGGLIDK
Serine/threonine-protein kinase PLK1 (Homo sapiens), P53350, UniProt P53350, whole entry, looked up: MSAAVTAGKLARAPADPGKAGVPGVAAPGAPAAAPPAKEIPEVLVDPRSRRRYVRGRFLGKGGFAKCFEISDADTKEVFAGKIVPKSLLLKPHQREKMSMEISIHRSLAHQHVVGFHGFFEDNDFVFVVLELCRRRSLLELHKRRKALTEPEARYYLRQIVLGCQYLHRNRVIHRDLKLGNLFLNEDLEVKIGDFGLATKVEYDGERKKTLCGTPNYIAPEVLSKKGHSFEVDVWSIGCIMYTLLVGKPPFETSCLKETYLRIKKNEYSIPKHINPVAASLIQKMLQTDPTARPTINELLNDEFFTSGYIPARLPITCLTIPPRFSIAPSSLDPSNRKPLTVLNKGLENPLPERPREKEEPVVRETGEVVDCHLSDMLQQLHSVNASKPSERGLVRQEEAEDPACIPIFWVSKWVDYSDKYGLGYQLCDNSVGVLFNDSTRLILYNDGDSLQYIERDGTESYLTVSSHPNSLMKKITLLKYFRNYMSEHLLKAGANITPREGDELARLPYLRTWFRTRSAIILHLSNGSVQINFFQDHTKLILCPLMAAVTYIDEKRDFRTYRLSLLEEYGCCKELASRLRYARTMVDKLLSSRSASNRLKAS
Importin subunit beta-1 (Homo sapiens), Q14974, UniProt Q14974, whole entry, looked up: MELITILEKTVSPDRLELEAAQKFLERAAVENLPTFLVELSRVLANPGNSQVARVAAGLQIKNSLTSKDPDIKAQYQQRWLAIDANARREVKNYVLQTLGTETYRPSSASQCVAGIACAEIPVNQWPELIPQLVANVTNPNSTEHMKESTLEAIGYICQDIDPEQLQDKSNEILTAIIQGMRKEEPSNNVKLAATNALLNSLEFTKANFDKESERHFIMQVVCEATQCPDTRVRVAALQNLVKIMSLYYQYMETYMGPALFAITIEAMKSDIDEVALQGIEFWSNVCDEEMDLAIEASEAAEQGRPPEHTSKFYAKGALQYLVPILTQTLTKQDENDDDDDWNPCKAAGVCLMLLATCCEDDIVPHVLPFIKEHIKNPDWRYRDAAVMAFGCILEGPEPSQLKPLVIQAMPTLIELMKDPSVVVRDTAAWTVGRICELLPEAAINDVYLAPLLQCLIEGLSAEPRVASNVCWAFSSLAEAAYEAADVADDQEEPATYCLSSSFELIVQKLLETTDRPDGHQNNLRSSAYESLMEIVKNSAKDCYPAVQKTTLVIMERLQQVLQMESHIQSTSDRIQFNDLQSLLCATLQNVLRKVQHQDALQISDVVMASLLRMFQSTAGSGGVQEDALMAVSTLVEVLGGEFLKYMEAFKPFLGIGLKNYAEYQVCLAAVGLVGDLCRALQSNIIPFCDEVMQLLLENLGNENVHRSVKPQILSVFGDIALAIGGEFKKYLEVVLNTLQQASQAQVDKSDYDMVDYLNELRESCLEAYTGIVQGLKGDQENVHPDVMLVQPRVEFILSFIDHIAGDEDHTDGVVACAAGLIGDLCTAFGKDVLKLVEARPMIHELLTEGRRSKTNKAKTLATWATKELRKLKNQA

`N#CCCn1cc(C(=O)NCc2ccccc2)c(-c2cccs2)n1` gave KAT2A inh -5%, VDR inhibitor -9%, PI5P4K alpha inh 9, PLK1 PBD inh 7%, Rango dissoc inh 12% and Rango complex inh 0%.
Screening Cc1cc(C(=O)c2cccs2)c(N)s1 returned KAT2A inh -7%, VDR inhibitor inconclusive, PLK1 PBD inh 24µM*, Rango dissoc inh -4% and Rango complex inh 4%.
Screening Cc1cc(C)c(C(=O)c2cccs2)c(C)c1 returned VDR inhibitor -4%, PI5P4K alpha inh 0, PLK1 PBD inh 0%, Rango dissoc inh 39% and Rango complex inh 1%.
`COc1ccc2c(C)cc(SCC(=O)N3CCOCC3)nc2c1` gave KAT2A inh 0%, VDR inhibitor -5%, PI5P4K alpha inh 1, PLK1 PBD inh 6%, Rango dissoc inh -8% and Rango complex inh 33µM*.
For CCc1nc(SC)ncc1C(=O)N1CCN(c2cc(C)ccc2C)CC1 the results were KAT2A inh -6% and VDR inhibitor -13%.
Screening O=C(Nc1cc(N2CCCCC2)ncn1)c1ccc(F)cc1 returned KAT2A inh -9%, VDR inhibitor -17%, PI5P4K alpha inh -8, PLK1 PBD inh 30µM*, Rango dissoc inh 0% and Rango complex inh 3%.
O=C(Nc1cc(N2CCOCC2)ncn1)c1ccc(F)cc1 was read as KAT2A inh -2%, VDR inhibitor -17%, PI5P4K alpha inh -7, PLK1 PBD inh -16%, Rango dissoc inh -12% and Rango complex inh 0%.
For O=C(NC(=O)c1ccc(Cl)cc1)Nc1cc(N2CCCCC2)ncn1 the results were VDR inhibitor inconclusive, PI5P4K alpha inh -8, PLK1 PBD inh 27µM*, Rango dissoc inh -17% and Rango complex inh -1%.
`CNC(CC(=O)c1ccc([N+](=O)[O-])cc1)C(Cl)(Cl)Cl` (stereo not drawn) gave KAT2A inh 2%, VDR inhibitor 18µM*, PI5P4K alpha inh -15, PLK1 PBD inh 2.7µM*, Rango dissoc inh -11% and Rango complex inh -1%.
For C=CS(=O)(=O)c1ccc(Oc2ccc(S(=O)(=O)C=C)cc2)cc1 the results were KAT2A inh -3%, VDR inhibitor 45µM*, PI5P4K alpha inh -7, PLK1 PBD inh 24µM*, Rango dissoc inh -16% and Rango complex inh -6%.

Compounds above that have two or more sulfur atoms (2):
Screening Cc1cc(C(=O)c2cccs2)c(N)s1 returned KAT2A inh -7%, VDR inhibitor inconclusive, PLK1 PBD inh 24µM*, Rango dissoc inh -4% and Rango complex inh 4%.
For C=CS(=O)(=O)c1ccc(Oc2ccc(S(=O)(=O)C=C)cc2)cc1 the results were KAT2A inh -3%, VDR inhibitor 45µM*, PI5P4K alpha inh -7, PLK1 PBD inh 24µM*, Rango dissoc inh -16% and Rango complex inh -6%.

Continuation.
For NS(=O)(=O)c1ccc(Oc2ccc(S(N)(=O)=O)cc2)cc1 the results were KAT2A inh -7%, VDR inhibitor -8%, PI5P4K alpha inh 0, PLK1 PBD inh 2%, Rango dissoc inh 0% and Rango complex inh 0%.
`O=C1N=C(N2C=CC(=C3C=CNC=C3)C=C2)/C(=C/N=NC(=O)c2ccccc2O)S1` gave KAT2A inh 0%, VDR inhibitor 4%, PI5P4K alpha inh -61*, PLK1 PBD inh -30%, Rango dissoc inh -17% and Rango complex inh inconclusive.
Cc1ccc(C(=O)N/N=C\c2ccc(Br)o2)o1 was read as KAT2A inh 2.5µM*, VDR inhibitor 4%, PLK1 PBD inh -4%, Rango dissoc inh 11% and Rango complex inh 1%.
For Cc1ccc(/C=N/NC(=O)C(=O)N/N=C/c2ccc(C)o2)o1 the results were KAT2A inh -9%, VDR inhibitor 8%, PI5P4K alpha inh 0, PLK1 PBD inh -4%, Rango dissoc inh 0% and Rango complex inh inconclusive.
`CCNc1nc2c(c(=O)n(Cc3ccccc3)c(=O)n2C)n1Cc1ccccc1` gave KAT2A inh -1%, VDR inhibitor -3%, PI5P4K alpha inh 6, PLK1 PBD inh 6%, Rango dissoc inh -6% and Rango complex inh -2%.
